Results from paper PMC11859074, “Exploring the Anticancer Potential of NO-Donor Oxadiazole Assemblies Against Malignant Pleural Mesothelioma” (Pharmaceutics, 2025).

Experiment: NO release assay (Griess assay, phosphate buffer with L-cysteine)

Compound: N#Cc1c(C(N)=NO)no[n+]1[O-]
- NO Released (%) 1 h (% NO2− (μmol/μmol) relative to initial concentration (100 μM), L-cysteine, phosphate buffer pH 7.4, 37 °C, 1 h): 70 ± 5%
- NO Released (%) 24 h (% NO2− (μmol/μmol) relative to initial concentration (100 μM), L-cysteine, phosphate buffer pH 7.4, 24 h): 81 ± 4%
- NO Released (%) 48 h (% NO2− (μmol/μmol) relative to initial concentration (100 μM), L-cysteine, phosphate buffer pH 7.4, 48 h): 84 ± 10%
- Fold Change 24 h/1 h (ratio of NO released at 24 h to 1 h): 1.2
- Fold Change 48 h/1 h (ratio of NO released at 48 h to 1 h): 1.2
- Fold Change 48 h/24 h (ratio of NO released at 48 h to 24 h): 1.0
